Earlier results on one molecule are cited in patent US20200253945A1, “DELAYED RELEASE DEFERIPRONE TABLETS AND METHODS OF USING THE SAME” (Chiesi Farmaceutici S.p.A., priority 2017, published 2020).

The conditions of the data set: ALS.

For the molecule `Nc1nc2ccc(OC(F)(F)F)cc2s1` [Riluzole], the increase in survival is 2-3 months.
